PMC8165439, “Chymase Dependent Pathway of Angiotensin II Generation and Rapeseed Derived Peptides for Antihypertensive Treatment of Spontaneously Hypertensive Rats” (Frontiers in Pharmacology, 2021)

Tests used:
ACE = conditions: ref Marczak et al. (2003); cited from earlier work
[1] = test system: spontaneously hypertensive rats (SHR); experiment: Plasma and urine parameters during chronic treatment; assay type: in vivo, rat; conditions: mean ± SEM
Protocol: (§1) Systolic and diastolic blood pressure (SBP and DBP, respectively) and heart rate (HR) were measured in conscious unrestrained rats by telemetry technique, once a week for 24 h. 24 hour observations in metabolic cages (Tecniplast S. p.A. Buguggiate, Italy) were performed weekly. The diuresis, weight of feces, food and water intake were measured; urine and blood samples were collected on day 0, 7th and 14th, and were centrifuged at 1200 g (blood for 15 min and urine for 5 min), then the samples were stored at –80°C until analysis.
(§2) On day 0 all animals received saline (0.9% NaCl) and then, for 14 consecutive days, the substance tested. Chymostatin (CH, 2 mg/kg/day) was dissolved in DMSO and then diluted with PBS (final concentration of DMSO was 0.15%). Peptides RIY (7.5 mg/kg/day) and VWIS (12.5 mg/kg/day) were dissolved in saline (0.9% NaCl, S). The substances were administered through the femoral vein during 10 min in the volume of 0.5 ml to young SHR (infusion rate: 3 ml/h) and 1 ml to adult rats (infusion rate: 6 ml/h). Control rats received solvents (either DMSO or saline) in the same volume.
(§3) Urine volume was determined by gravimetric method. Sodium and potassium concentration in urine and plasma were measured by flame photometry (PFP7/C, Jenway Ltd, Stone, United Kingdom). Urine and plasma osmolality were measured by freezing point depression (Osmomat® 030 M, Gonotec, Berlin, Germany). These parameters were used to determine the excretion rates of total solutes (UosmV), sodium (UNaV) and potassium (UKV). Commercially available ELISA kits were used to measure nitric oxide metabolites (NOx, SunRed, Shanghai) and albumin (Albumin, ICL, Portland) concentration in urine. Excretion rate of NOx (UNOxV) and albumin (UAE) were calculated.

[2] = test system: spontaneously hypertensive rats (SHR); experiment: Metabolic parameters in metabolic cages during chronic treatment; assay type: in vivo, rat; conditions: mean ± SEM
Protocol: as §1, §2, §3

[3] = adult SHR (SHR-16), day 0 (baseline)
[4] = adult SHR (SHR-16), day 7 of daily iv CH 2, RIY 7.5, VWIS 12.5 mg/kg/day
[5] = adult SHR (SHR-16), day 7 of daily iv treatment
[6] = adult SHR (SHR-16), day 14 of daily iv CH 2, RIY 7.5, VWIS 12.5 mg/kg/day
[7] = adult SHR (SHR-16), day 14 of daily iv treatment
[8] = young SHR (SHR-6), day 0 (baseline), CH n=8-10, RIY n=5, VWIS n=5-6
[9] = young SHR (SHR-6), day 0 (baseline)
[10] = young SHR (SHR-6), day 7 of daily iv CH 2, RIY 7.5, VWIS 12.5 mg/kg/day
[11] = young SHR (SHR-6), day 7 of daily iv treatment
[12] = young SHR (SHR-6), day 14 of daily iv CH 2, RIY 7.5, VWIS 12.5 mg/kg/day
[13] = young SHR (SHR-6), day 14 of daily iv treatment

**Q.** For `CC[C@H](C)[C@H](NC(=O)[C@@H](N)CCCNC(=N)N)C(=O)N[C@@H](Cc1ccc(O)cc1)C(=O)O` [RIY, Arginine-Isoleucine-Tyrosine], which “stability / conversion to dipeptide in the presence of ACE” value (ACE) is on record?
**A.** more stable in the presence of ACE

**Q.** What about the Plasma osmolality ([1]; adult SHR (SHR-16), day 0 (baseline), CH n=5-8, RIY n=5-6, VWIS n=5-6) of the same compound?
**A.** 306±4 mOsm/l

**Q.** And the “Plasma K+ concentration” value [1, 3]?
**A.** 3.67 ± 0.20 mmol/L

**Q.** What about the “Plasma Na+ concentration” value [1, 3] of the same compound?
**A.** 121.8 ± 3.4 mmol/L

**Q.** And the Potassium excretion [1, 3]?
**A.** 0.93 ± 0.09 µmol/min

**Q.** What about the Sodium excretion [1, 3] of the same compound?
**A.** 1.03 ± 0.08 µmol/min

**Q.** And the Total solute excretion [1, 3]?
**A.** 10.38±1.82 µOsm/min

**Q.** And the Plasma osmolality [1, 4]?
**A.** 304±1 mOsm/l

**Q.** What about the “Plasma K+ concentration” value [1, 5] of the same compound?
**A.** 3.81 ± 0.14 mmol/L

**Q.** What about the “Plasma Na+ concentration” value [1, 5] of the same compound?
**A.** 128.8 ± 2.4 mmol/L

**Q.** What about the Potassium excretion [1, 5] of the same compound?
**A.** 0.85 ± 0.22 µmol/min

**Q.** And the Sodium excretion [1, 5]?
**A.** 0.68 ± 0.16 µmol/min

**Q.** What about the Total solute excretion [1, 5] of the same compound?
**A.** 10.41±1.87 µOsm/min

**Q.** What about the Plasma osmolality [1, 6] of the same compound?
**A.** 296±3 mOsm/l

**Q.** And the “Plasma K+ concentration” value [1, 7]?
**A.** 3.23 ± 0.27 mmol/L

**Q.** What about the “Plasma Na+ concentration” value [1, 7] of the same compound?
**A.** 131.3 ± 2.0 mmol/L

**Q.** And the Potassium excretion [1, 7]?
**A.** 1.12 ± 0.18 µmol/min

**Q.** And the Sodium excretion [1, 7]?
**A.** 0.86 ± 0.27 µmol/min

**Q.** What about the Total solute excretion [1, 7] of the same compound?
**A.** 9.67±1.41 µOsm/min

**Q.** And the Plasma osmolality [1, 8]?
**A.** 298±1 mOsm/l

**Q.** And the “Plasma K+ concentration” value [1, 9]?
**A.** 4.43 ± 0.15 mmol/L

**Q.** What about the Potassium excretion [1, 9] of the same compound?
**A.** 0.72 ± 0.24 µmol/min

**Q.** And the Sodium excretion [1, 9]?
**A.** 0.63 ± 0.24 µmol/min

**Q.** And the Total solute excretion [1, 9]?
**A.** 4.84±1.13 µOsm/min

**Q.** What about the Plasma osmolality [1, 10] of the same compound?
**A.** 298±2 mOsm/l

**Q.** And the “Plasma K+ concentration” value [1, 11]?
**A.** 4.54 ± 0.11 mmol/L

**Q.** What about the “Plasma Na+ concentration” value [1, 11] of the same compound?
**A.** 129.6 ± 4.0 mmol/L

**Q.** What about the Potassium excretion [1, 11] of the same compound?
**A.** 0.65 ± 0.09 µmol/min

**Q.** What about the Sodium excretion [1, 11] of the same compound?
**A.** 0.64 ± 0.16 µmol/min

**Q.** What about the Total solute excretion [1, 11] of the same compound?
**A.** 4.85±1.11 µOsm/min

**Q.** What about the Plasma osmolality [1, 12] of the same compound?
**A.** 290±2 mOsm/l

**Q.** What about the “Plasma K+ concentration” value [1, 13] of the same compound?
**A.** 4.39 ± 0.18 mmol/L

**Q.** And the “Plasma Na+ concentration” value [1, 13]?
**A.** 124.2 ± 4.3 mmol/L

**Q.** What about the Potassium excretion [1, 13] of the same compound?
**A.** 0.71 ± 0.40 µmol/min

**Q.** What about the Sodium excretion [1, 13] of the same compound?
**A.** 0.68 ± 0.19 µmol/min

**Q.** What about the Total solute excretion [1, 13] of the same compound?
**A.** 6.44±2.35 µOsm/min

**Q.** What about the Body weight ([2]; adult SHR (SHR-16), day 0 (baseline), CH n=8, RIY n=5-6, VWIS n=5-6) of the same compound?
**A.** 299 ± 12 g

**Q.** What about the Diuresis [2, 3] of the same compound?
**A.** 6.4 ± 0.2 µL/min

**Q.** And the Faeces [2, 3]?
**A.** 10±1 g/24 h

**Q.** And the Food intake [2, 3]?
**A.** 20±2 g/24 h

**Q.** What about the Water intake [2, 3] of the same compound?
**A.** 28±2 g/24 h

**Q.** And the Body weight [2, 4]?
**A.** 309 ± 9 g

**Q.** And the Diuresis [2, 5]?
**A.** 8.5 ± 1.8 µL/min

**Q.** What about the Faeces [2, 5] of the same compound?
**A.** 11±1 g/24 h

**Q.** And the Food intake [2, 5]?
**A.** 22±2 g/24 h

**Q.** What about the Water intake [2, 5] of the same compound?
**A.** 35±2 g/24 h

**Q.** And the Body weight [2, 6]?
**A.** 326 ± 8 g

**Q.** What about the Diuresis [2, 7] of the same compound?
**A.** 10.4 ± 1.4 µL/min

**Q.** What about the Faeces [2, 7] of the same compound?
**A.** 13±1 g/24 h

**Q.** And the Food intake [2, 7]?
**A.** 21±1 g/24 h

**Q.** And the Water intake [2, 7]?
**A.** 37±3 g/24 h

**Q.** What about the Body weight [2, 8] of the same compound?
**A.** 112 ± 7 g

**Q.** What about the Diuresis [2, 9] of the same compound?
**A.** 5.3 ± 0.8 µL/min

**Q.** And the Faeces [2, 9]?
**A.** 11±1 g/24 h

**Q.** And the Food intake [2, 9]?
**A.** 16±1 g/24 h

**Q.** What about the Water intake [2, 9] of the same compound?
**A.** 23±2 g/24 h

**Q.** And the Body weight [2, 10]?
**A.** 149 ± 8 g

**Q.** And the Diuresis [2, 11]?
**A.** 9.0 ± 1.3 µL/min

**Q.** What about the Faeces [2, 11] of the same compound?
**A.** 16±1 g/24 h

**Q.** What about the Food intake [2, 11] of the same compound?
**A.** 19±1 g/24 h

**Q.** What about the Water intake [2, 11] of the same compound?
**A.** 26±4 g/24 h

**Q.** What about the Body weight [2, 12] of the same compound?
**A.** 185 ± 7 g

**Q.** What about the Diuresis [2, 13] of the same compound?
**A.** 9.4 ± 1.2 µL/min

**Q.** And the Faeces [2, 13]?
**A.** 15±1 g/24 h

**Q.** What about the Food intake [2, 13] of the same compound?
**A.** 21±1 g/24 h

**Q.** What about the Water intake [2, 13] of the same compound?
**A.** 33±3 g/24 h
